Here are results for two proteins from publication PMC3913438, “Nucleotide Pyrophosphatase/Phosphodiesterase 1 Exerts a Negative Effect on Starch Accumulation and Growth in Rice Seedlings under High Temperature and CO2 Concentration Conditions” (Plant and Cell Physiology, 2013).

Substrate in series [1]: O=c1ccn([C@@H]2O[C@H](CO[P@@](=O)(O)O[P@@](=O)(O)O[C@H]3O[C@H](CO)[C@@H](O)[C@H](O)[C@H]3O)[C@@H](O)[C@H]2O)c(=O)[nH]1
In words: purified protein, by the assay type. More on the design: steady-state hydrolysis kinetics of purified recombinant rice NPPs, substrate 0.1-10 mM, 37 °C, optimal pH. An excerpt: To carry out substrate specificity and kinetic studies of NPP1, NPP2 and NPP6, in this work we produced transgenic rice cells ectopically expressing NPP1, NPP2 and NPP6 and purified the corresponding recombinant proteins as described in the Materials and Methods. Details of the processes for purification of recombinant proteins and quality of the final preparations are shown in Supplementary Table S2 and Supplementary Fig. S1A. […] Purification procedures of NPP1, NPP2 and NPP6 expressed in the transgenic rice cells (UNP1, UNP2 and UNP6, respectively) were essentially identical to those used in the earlier study ([Nanjo et al. 2006]). They are summarized in Supplementary Table S2. Rice callus cells (200 g) derived from the seed embryos of UNP1, UNP2 and UNP6 lines were homogenized in 5 vols. of 10 mM Tris–HCl (pH 8.8) and filtered through four layers of gauze. The homogenates were centrifuged at 20,000 × g for 10 min. The supernatants were then adjusted to acidic pH 5.4 with acetate buffer and centrifuged at 20,000 × g. After re-adjustment to pH 7.4 with 1.5 M Tris–HCl (pH 8.8) and further centrifugation at 20,000 × g, the resulting supernatants were applied to a Con A–Sepharose 4B column (ø 1.0 × 8 cm, Pharmacia) equilibrated with 40 mM Tris–HCl (pH 7.4), 0.5 M NaCl, 1 mM MnCl2 and 1 mM CaCl2, and eluted with 25 ml of 0.5 M α-methyl-D-mannopyranoside in 10 mM Tris–HCl (pH 7.4). […]

Substrate in series [2]: Nc1ncnc2c1ncn2[C@@H]1O[C@H](COP(=O)(O)OS(=O)(=O)O)[C@@H](O)[C@H]1O
In words: purified protein. The settings on record: 37.0 °C.

Substrate in series [3]: Nc1ncnc2c1ncn2[C@@H]1O[C@H](COP(=O)(O)OP(=O)(O)O)[C@@H](O)[C@H]1O
Description: purified protein. The class given is biochemical, Oryza sativa. The settings on record: 37°C, optimal pH (pH 4.5 with ADP), no metal required.

B1: NPP6 (Oryza sativa Japonica Group) (protein)
chain: GGGGGVWAFSSSSSSSSYSRIGEQPLSLIGIHRATVGIDAAASVQASPRLLGVKGEDTAWVTVDFAAPHASDGDWIGVFSPSNFNASTCPGPSGSDSGPVICSAPIKYQLANYSSDYGKTGKGTLKFQLINQRQDFSFALFTGGLSNPKLIAVSNKIAFANPKAPVYPRLAQGKSWNEMTVTWTSGYDIKEAYPFVEWGMKWSPPTRTAAGTVTFDRESLCGEPARTVGWRDPGFIHTAFLTDLWPNKEYYYKIGHMLPDGKIVWGKFYSFKAPPFPGQKSLQRVVIFGDMGKAERDGSNEYSNYQPGSLNTTDTLIKDLDNIDIVFHIGDITYANGYISQWDQFTQQVEPITARVPYMIASGNHERDWPNSGSFFNGTDSGGECGVLAETMYYTPTENRANYWYKTDYGMFRFCVADSEHDWREGTEQYAFIESCLATVDRKKQPWLVFIAHRVLGYSSGFFYGAGGAFAEPTARQSLQRLWQRHRVDLAFYGHVHNYERTCPVYDGRCASPERSRYSGAVGGTIHAVVGGGGSHLSNFTAEAPPWSVYREMDYGFVKLTAFNYTSLLYEYRRSSDGEVHDSFTVHREYRDVLACVADSCPPTIPPAT
notes: recombinant, purified from transgenic rice cells (UNP6); 74 kDa SDS-PAGE, 224 kDa gel filtration; gene on chromosome 9
For orientation: Vmax means the rate approached at saturating substrate. One may read the Km as the concentration of substrate that gives half-maximal velocity. What is called kcat/Km is the turnover number divided by the Michaelis constant. Consider B1, for which the Vmax in series [1] worked out at 93 µmol/min/mg. In addition, in series [2], the Km amounted to 800 µM, the Vmax is 6 µmol/min/mg and the kcat/Km was determined as 93000 M⁻¹ s⁻¹.

B2: NPP2 (Oryza sativa Japonica Group) (protein)
chain: RGDEQPLSRIAIERATVAAVDSASVKAQPTVLGLKGQSSDWVVVEFSHPKPSNDDWIGVFSPSGFSSEICQPEYYGDLPPYLCTSPIKFQYANFNNADYNRSGKGLLRLQLINQREDFSFALFSGGLSAPKLIAISNKVSFQNPKAPVYPRLAQGKSWNEMTVTWTSGYSIKEAIPFVEWGHKGGNQMLSPAGTLTFSRNSMCGSPARTVGWRDPGYIHTSFLKELWPDSLYTYRLGHRLLDGTHIWSKSYSFRASPYPGQDSVQRVVIFGDMGKAEIDGSDEYGNYEQASLYTTNQLIKELDSIDMVIHIGDLSYANGYLSQWDQFTQQIEPIASTVPYMIGSGNHERDWPGSGSFYGHNDSGGECGVPTQTMFYVPAENRAKLWYSTDYGMFRFCIADTEQDWRPGTEQYKFIEQCLSSVDRSKQPWLIFLAHRVLGYSSASWYEIMMGSYGEPMGRDGLEELWQKYKVDLAVFGHIHSYERTCPIYQNRCVQDGSNLYTGQFNATTHVIVGGGGAMLSPFRATVPYWSFFRDYDFGFSKLTALNHSTLLFEYKKSRDGKVYDHFTISRDYRDIMACSIDNCPRTTLAV
notes: recombinant, purified from transgenic rice cells (UNP2); 71 kDa SDS-PAGE, 374 kDa gel filtration; gene on chromosome 12
Regarding B2, in series [3], the Vmax was 68 µmol/min/mg. In series [2], the Michaelis-Menten constant (Km) came to 500 µM, the Vmax is 29 µmol/min/mg and the kcat/Km was determined as 68000 M⁻¹ s⁻¹.
